{"source": "patent US5093325A", "about": "“Combination preparation having antithrombotic action” (priority 1989, dated 1992)", "test_system": "human platelets", "test": "Inhibition of collagen-stimulated aggregation of human platelets in platelet-rich plasma (aggregometer)", "format": "cell-based", "details": "ASA 3×10^-5, 10^-4 and 3×10^-4 M, separately", "protocol": "Human platelet-rich plasma (PRP) is incubated in an aggregometer at 37° C. and mixed with […] of collagen to cause aggregation. […] The course of the aggregation is recorded in the aggregometer. 10 minutes after collagen addition, the samples are centrifuged at 3000 rpm and the supernatant is tested with an enzyme linked immunosorbent assay (ELISA) for its content of plasminogen activator inhibitor-1 (PAI-1) and with a radioimmunoassay (RIA) for the content of platelet-derived growth factor (PDGF)."}
{"smiles": "CC(=O)Oc1ccccc1C(=O)O", "note": "[ASA, acetylsalicylic acid]", "values": [{"measurement": "platelet aggregation inhibition, in words", "result": "ineffective or slightly effective"}]}
